## Measured affinities in a library of Ab-14 heavy chain variants

Binding partner: SARS-CoV-2 spike HR2 peptide, sequence PDVDLGDISGINAS.

Ab-14 is the parent antibody, in scFv form: VH, then the linker GGGGSGGGGSGGGGS, then VL. The light chain is unchanged in all variants.
VH: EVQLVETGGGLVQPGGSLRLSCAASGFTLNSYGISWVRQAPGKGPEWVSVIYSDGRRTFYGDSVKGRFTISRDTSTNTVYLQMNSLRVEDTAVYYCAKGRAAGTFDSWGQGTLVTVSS
VL: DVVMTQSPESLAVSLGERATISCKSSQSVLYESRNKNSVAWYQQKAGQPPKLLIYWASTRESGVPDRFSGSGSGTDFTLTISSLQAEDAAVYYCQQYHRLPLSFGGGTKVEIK

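The parent was found by panning a naive human phage display library on the peptide. The library (AAYL49) carries one to three amino acid substitutions per variant, with no insertions or deletions. The assay is AlphaSeq: two haploid yeast populations carry antibody and antigen on their surface. Mating (16 h, 30 °C) was followed by selection of diploids and sequencing of their barcodes. Scores were corrected for input abundance and mapped to Kd with protein pairs of known affinity run in the same pool. Each pool was mated in three replicate cultures.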

The whole VH of each variant is written out.
This list gathers variants with a substitution at V64 (VH, numbered from residue 1).
Numbers give log10(Kd / nM), so 0 is 1 nM and 3 is 1 µM. Smaller is tighter.
Averages over replicates are reported, and they cover detected replicates only.
"nd" means that the variant was in the library but no mating with the target was seen in that replicate; the authors take this as a sign of poor binding, and no number exists.
The list is sorted by this average, lowest first, undetected variants last.
Three control strains display no target. For library AAYL49, 15% of the pairings with them gave a signal, with a median of 4.06 and one signal in twenty below 2.83, so weak values seen in few replicates may be background.

- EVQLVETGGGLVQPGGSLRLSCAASGFTLNSYGISWVRQAPGKGPEWVSVIYADGRRTFYGDSSKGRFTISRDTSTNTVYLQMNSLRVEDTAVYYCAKGRAAGTFDSWGQGTLVTVSS = 1.02, 1.11, 1.08 (mean 1.07)
- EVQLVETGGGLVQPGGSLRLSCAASGFTLNSYGISWVRQAPGKGPEWVSVIYSDGRRTFYGDSSKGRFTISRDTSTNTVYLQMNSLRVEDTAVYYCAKGRAAGTFDSWGQGTLVTVSS = 2.67, 2.43, 2.50 (mean 2.54)
- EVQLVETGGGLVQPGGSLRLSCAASGFTLASYGISWVRQAPGKGPEWVSVIYSDKRRTFYGDSFKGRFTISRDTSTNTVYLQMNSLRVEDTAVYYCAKGRAAGTFDSWGQGTLVTVSS = nd, 2.62, nd
- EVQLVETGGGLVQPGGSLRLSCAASGFSLNSYGISWVRQAPGKGPEWVSVIYSDGRRTFYGDSWKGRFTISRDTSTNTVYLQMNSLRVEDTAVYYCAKGRAAGTFDSWGQGTLVTVSS = 3.18, 3.16, 2.97 (mean 3.10)
- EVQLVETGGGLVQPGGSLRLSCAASGFTLNSAGISWVRQAPGKGPEWVSVIYSDGRRTFYLDSRKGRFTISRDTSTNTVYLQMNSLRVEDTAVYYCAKGRAAGTFDSWGQGTLVTVSS = nd, nd, 3.85
- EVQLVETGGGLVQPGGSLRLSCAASGFTLNSYGIKWVRQAPGKGPEWVSYIYSDGRRTFYGDSYKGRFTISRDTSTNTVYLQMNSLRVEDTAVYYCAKGRAAGTFDSWGQGTLVTVSS = nd, nd, 3.85
- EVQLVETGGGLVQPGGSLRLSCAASGFTLGSYGISWVRQAPGKGPEWVSVIYSDGRRTFYGDSEKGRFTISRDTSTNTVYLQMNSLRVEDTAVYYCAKGRAAGTFDSWGQGTLVTVSS = 4.00, nd, nd
- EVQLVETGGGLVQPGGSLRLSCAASGFTLNSYGISWVRQAPGKGPEWVSVIYSTGRRTFYGDSYKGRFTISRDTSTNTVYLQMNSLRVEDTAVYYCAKGRAAGTFNSWGQGTLVTVSS = 5.11, 3.37, nd (mean 4.24)
- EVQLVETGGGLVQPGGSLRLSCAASGFTLNSYGISWVRQAPGKGPEWVSVIYSAQRRTFYGDSKKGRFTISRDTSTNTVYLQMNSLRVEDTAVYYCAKGRAAGTFDSWGQGTLVTVSS = 4.12, 3.71, 5.33 (mean 4.39)
- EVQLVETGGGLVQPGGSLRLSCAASGFTLNSYGISWVRQAPGKGPEWVSVIYSDGRRTFHGDSKKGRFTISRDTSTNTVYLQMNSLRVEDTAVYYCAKGRAAGTFGSWGQGTLVTVSS = 4.40, nd, nd
- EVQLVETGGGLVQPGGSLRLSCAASGFTLNSYGIKWVRQAPGKGPEWVSVIYSDGRRTFYGDSKKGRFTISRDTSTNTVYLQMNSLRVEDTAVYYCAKGRARGTFDSWGQGTLVTVSS = nd, 4.56, nd
- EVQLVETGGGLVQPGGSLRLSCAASGFTLNSYGISWVRQAPGKGPEWVSVIYSCGRRTTYGDSWKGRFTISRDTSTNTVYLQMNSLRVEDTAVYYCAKGRAAGTFDSWGQGTLVTVSS = nd, nd, 4.83
- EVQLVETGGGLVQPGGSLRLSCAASGFTLNSYGILWVRQAPGKGPEWVSVIYSDGRRTFYGDSEKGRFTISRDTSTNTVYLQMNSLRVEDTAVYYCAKGRYAGTFDSWGQGTLVTVSS = nd, 4.88, 4.85 (mean 4.87)
- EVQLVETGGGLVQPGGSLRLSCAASGFTLNSYGISWVRQAPGKGPEWVSVITSDGQRTFYGDSHKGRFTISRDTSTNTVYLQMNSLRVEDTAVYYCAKGRAAGTFDSWGQGTLVTVSS = nd, nd, 4.99
- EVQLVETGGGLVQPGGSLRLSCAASGFTLNSYGISWVRQAPGKGPEWVSVIYSDGHRTFYGDSDKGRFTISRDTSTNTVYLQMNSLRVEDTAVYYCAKGRHAGTFDSWGQGTLVTVSS = 5.51, 4.61, nd (mean 5.06)
- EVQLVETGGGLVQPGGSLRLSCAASGFTLNSFGILWVRQAPGKGPEWVSVIYSDGRRTFYGDSDKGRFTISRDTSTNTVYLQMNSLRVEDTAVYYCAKGRAAGTFDSWGQGTLVTVSS = 6.39, 4.71, 4.58 (mean 5.23)
- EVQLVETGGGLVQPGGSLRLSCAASGFTLNSYGISWVRQAPGKGPEWVSVIYKDGRRTFYGDSHAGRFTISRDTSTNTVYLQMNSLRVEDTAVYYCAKGRAAGTFDSWGQGTLVTVSS = 5.66, nd, nd
- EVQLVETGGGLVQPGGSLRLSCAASGFTRASYGISWVRQAPGKGPEWVSVIYSDGRRTFYGDSDKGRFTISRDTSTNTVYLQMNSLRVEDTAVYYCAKGRAAGTFDSWGQGTLVTVSS = 5.50, nd, 6.16 (mean 5.83)
- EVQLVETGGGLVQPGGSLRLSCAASGFTLNSYEASWVRQAPGKGPEWVSVIYSDGRRTFYGDSQKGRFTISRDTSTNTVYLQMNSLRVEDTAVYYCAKGRAAGTFDSWGQGTLVTVSS = nd, nd, nd
- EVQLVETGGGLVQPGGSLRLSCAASGFTLNGYGNSWVRQAPGKGPEWVSVIYSDGRRTFYGDSFKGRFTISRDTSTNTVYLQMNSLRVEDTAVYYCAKGRAAGTFDSWGQGTLVTVSS = nd, nd, nd
- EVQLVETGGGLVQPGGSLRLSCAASGFTLNSYGISWVRQAPGKGPEWVSVIYRDGRRTFYGFSPKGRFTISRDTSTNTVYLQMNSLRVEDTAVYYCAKGRAAGTFDSWGQGTLVTVSS = nd, nd, nd
- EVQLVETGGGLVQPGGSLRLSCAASGFTLNSYGISWVRQAPGKGPEWVSVIYSDGRRTFYGDSGKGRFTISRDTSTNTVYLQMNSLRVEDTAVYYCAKGRAAGTFDSWGQGTLVTVSS = nd, nd, nd
- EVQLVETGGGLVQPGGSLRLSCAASGFTLNSYGISWVRQAPGKGPEWVSVIYSDGRRTFHGDSRKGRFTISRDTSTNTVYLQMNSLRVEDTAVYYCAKGRAAGFFDSWGQGTLVTVSS = nd, nd, nd
- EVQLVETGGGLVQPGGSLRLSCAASGFTLNSYGISWVRQAPGKGPEWVSVIYSDTRRTFYGDSNLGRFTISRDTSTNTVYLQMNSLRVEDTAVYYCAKGRAAGTFDSWGQGTLVTVSS = nd, nd, nd
- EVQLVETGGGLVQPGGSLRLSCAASGFTLNSHGISWVRQAPGKGPEWVSVIYSDGRRTFYGDSGKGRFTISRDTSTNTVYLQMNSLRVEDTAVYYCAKGRAAGTFDSWGQGTLVTVSS = nd, nd, nd

The last 3 entries again:

- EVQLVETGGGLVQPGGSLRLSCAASGFTLNSYGISWVRQAPGKGPEWVSVIYSDGRRTFHGDSRKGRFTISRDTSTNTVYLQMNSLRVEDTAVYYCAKGRAAGFFDSWGQGTLVTVSS -> nd, nd, nd
- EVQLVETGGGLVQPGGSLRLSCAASGFTLNSYGISWVRQAPGKGPEWVSVIYSDTRRTFYGDSNLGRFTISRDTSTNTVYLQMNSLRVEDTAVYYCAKGRAAGTFDSWGQGTLVTVSS -> nd, nd, nd
- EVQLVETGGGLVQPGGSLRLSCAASGFTLNSHGISWVRQAPGKGPEWVSVIYSDGRRTFYGDSGKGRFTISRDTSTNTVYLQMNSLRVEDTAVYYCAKGRAAGTFDSWGQGTLVTVSS -> nd, nd, nd

For reference, the parent read 0.65 as the reference entry and 4.11 (one replicate of three) as a member of this library.

Data: MIT Lincoln Laboratory AlphaSeq set, Engelhart et al. 2022, doi:10.1038/s41597-022-01779-4, as distributed in FLAb.